# Source: patent US20140057993A1, “Prophylaxis and Treatment of Enteropathogenic Bacterial Infection” (NORTHSHORE UNIVERSITY HEALTHSYSTEM, priority 2011, published 2014)
# Tested on: C. rodentium
# Conditions: mouse, in vivo
substance,measurement,value
polyethylene glycol [PEG],induction of diarrhea,did not induce diarrhea
same,stool pellet formation in colon,able to form stool pellets
